This passage reports inhibition results from PubChem BioAssay AID720647 (Broad Institute, 2013).

This is a selection; strong and weak results do not stand in their true shares. Some salts and complexes are drawn in separate pieces, as the source files them; their charges need not balance. Calls of active or inactive are those of the source.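 How the source made its calls: active means drop in luminescence signal, shown as inhibition above about 50% in the replicate tests (limit read from the data, passing the limit was not always enough); inconclusive means probably only some replicates passing the limit; inactive means the rest.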

This assay deals with Drosophila bursicon receptor LGR2 (rickets). Briefly: LGR2 cAMP reporter signal reduction – cell-based, HEK293, CRE-luciferase reporter, bursicon stimulation, primary screen (AID 720647).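 Further: agonist challenge used bursicon conditioned medium at about half maximal strength.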 As to conditions: bursicon-stimulated, 4 h, at 9.99 µM, hits give high values. Background: A reporter such as luciferase makes a cellular process visible.
In general, inhibition refers to the relative decrease from the control value, in per cent. Regarding `Cc1cc(C)cc(OP(C)(N)=O)c1` (stereo unspecified), the inhibition was inactive: 11.1%.

As for `COc1ccccc1OP(C)(=O)Nc1cc(Cl)ccc1C` (stereo unspecified), the inhibition was inactive: -0.055%.

As for `CCOC(=O)c1ccc(NP(C)(=O)Oc2ccccc2)cc1` (stereo unspecified), the inhibition is inactive: -6.99%.

For `O=[N+]([O-])c1ccc2c(c1)C=Nc1ccccc1O2`, the inhibition is inactive: 8.53%.

As to `Cc1cccc(C)c1OP(C)(N)=O` (stereo unspecified), the inhibition is inactive: -5.01%.

Regarding `CC(C)(C)c1ccc(OP(C)(=O)Nc2ccc(SC(F)(F)F)cc2)cc1` (stereo unspecified), the inhibition is inactive: -2.52%.

For the compound `O=[N+]([O-])c1cc([N+](=O)[O-])c(Nc2cccnc2)c([N+](=O)[O-])c1`, the inhibition is inactive: 16.4%.

Consider `COc1ccccc1-c1ccccn1.O=[N+]([O-])c1cc([N+](=O)[O-])c(O)c([N+](=O)[O-])c1`, for which the inhibition was inactive: -8.86%.

For `CCN(CC)CCCOC(=O)C(O)(c1ccccc1)c1ccccc1`, the inhibition is inactive: -7.44%.

`CP(=O)(Nc1ccccn1)Oc1ccc(Cl)cc1` (stereo unspecified): the inhibition was inactive: 13.5%.

As for `CCOC(=O)c1ccc(NP(C)(=O)Oc2ccc(OC)cc2)cc1` (stereo unspecified), the inhibition is inactive: 0.641%.

Take `Cc1cc(C)cc(OP(C)(=O)Nc2ccc(SC(F)(F)F)cc2)c1` (stereo unspecified): the inhibition is inactive: 11.9%.

Consider `CP(=O)(NC(=O)Nc1ccccc1)Oc1ccccc1` (stereo unspecified), for which the inhibition was inactive: 7.15%.

As to `CP(=O)(Oc1ccccc1)OC(c1ccccc1)C(F)(F)F` (stereo unspecified), the inhibition is inactive: -2.77%.

As to `Cc1cccc(C)c1OP(C)(=O)Nc1ccc(SC(F)(F)F)cc1` (stereo unspecified), the inhibition is inactive: 11.6%.

As to `CP(=O)(Nc1ccc(SC(F)(F)F)cc1)Oc1ccc(Cl)cc1` (stereo unspecified), the inhibition was inactive: -8.6%.

Consider `CP(=O)(Nc1ccccc1Br)Oc1ccccc1` (stereo unspecified), for which the inhibition was inactive: -5.29%.

Take `COc1ccccc1OP(C)(=O)Nc1ccccc1` (stereo unspecified): the inhibition was inactive: -10.2%.

Consider `COc1ccc(-c2ccccn2)cc1.O=[N+]([O-])c1cc([N+](=O)[O-])c(O)c([N+](=O)[O-])c1`, for which the inhibition was inactive: -12.4%.

For the compound `CP(=O)(Nc1ccc(SC(F)(F)F)cc1)Oc1ccccc1` (stereo unspecified), the inhibition was inactive: 5.74%.

Turning to `CCCOc1ccc(NP(C)(=O)Oc2ccc(Cl)cc2)cc1` (stereo unspecified), the inhibition is inactive: -0.332%.

With `CN1CCCCC1COC(=O)C1(O)c2ccccc2CCc2ccccc21` (stereo unspecified), the inhibition was inactive: 9.71%.

On to `CCOC(=O)C(CC)C1=NC(C)(C)Cc2ccccc21.O=[N+]([O-])c1cc([N+](=O)[O-])c(O)c([N+](=O)[O-])c1` (stereo unspecified), for which the inhibition is inactive: -10.4%.

Turning to `O=[N+]([O-])c1cc([N+](=O)[O-])c(Nc2nnnn2CCO)c([N+](=O)[O-])c1`, the inhibition was inactive: 2.71%.

For `CN(Cc1cccnc1)C(=O)COc1ccc(Cl)c(Cl)c1.O=[N+]([O-])c1cc([N+](=O)[O-])c(O)c([N+](=O)[O-])c1`, the inhibition is inactive: 8.99%.

Take `O=[N+]([O-])c1cc([N+](=O)[O-])c(-n2nnc3ccccc32)c([N+](=O)[O-])c1`: the inhibition was inactive: 17.4%.

With `CP(=O)(Nc1cccc(Br)c1)Oc1ccccc1` (stereo unspecified), the inhibition is inactive: -14.1%.

Regarding `Cc1cc(C)cc(OP(C)(=O)Nc2ccccn2)c1` (stereo unspecified), the inhibition was inactive: 18.1%.

Take `CCOC(=O)c1ccc(NP(C)(=O)Oc2cc(C)cc(C)c2)cc1` (stereo unspecified): the inhibition was inactive: 6.63%.

Regarding `Cc1cc(C)cc(OP(C)(=O)Nc2ccc(C)cc2C)c1` (stereo unspecified), the inhibition was inactive: 3.65%.

Consider `COc1ccccc1OP(C)(=O)Nc1cccc(Br)c1` (stereo unspecified), for which the inhibition was inactive: -3.88%.

Turning to `CC1=NCCc2c1[nH]c1ccccc21.O=[N+]([O-])c1cc([N+](=O)[O-])c(O)c([N+](=O)[O-])c1`, the inhibition was inactive: 12.5%.

With `O=C(O)c1cccc(Nc2c([N+](=O)[O-])cc([N+](=O)[O-])cc2[N+](=O)[O-])c1`, the inhibition was inactive: 4.35%.

Take `CCCCCOc1ccc(NP(C)(=O)Oc2ccc(Cl)cc2Cl)cc1` (stereo unspecified): the inhibition was inactive: 0.148%.

Turning to `O=[N+]([O-])c1cc([N+](=O)[O-])c(OC2CCCCC2O)c([N+](=O)[O-])c1` (stereo unspecified), the inhibition was inactive: 10.1%.

Take `Cc1c([N+](=O)[O-])cc([N+](=O)[O-])c(Br)c1[N+](=O)[O-]`: the inhibition was inactive: 4.07%.

With `CCOC(=O)c1ccc(NP(C)(=O)Oc2ccc(F)cc2)cc1` (stereo unspecified), the inhibition is inactive: -7.38%.

With `COc1ccc(OP(C)(=O)Nc2ccc(SC(F)(F)F)cc2)cc1` (stereo unspecified), the inhibition was inactive: 1.7%.

Regarding `CCN(CC)CCCNc1ccccc1[N+](=O)[O-].O=[N+]([O-])c1cc([N+](=O)[O-])c(O)c([N+](=O)[O-])c1`, the inhibition was inactive: 5.15%.

`COc1ccc2c(c1O)-c1c(O)c(OC)cc3c1[C@H](C2)[N+](C)(C)CC3.O=[N+]([O-])c1cc([N+](=O)[O-])c([O-])c([N+](=O)[O-])c1[O-]`: the inhibition was inactive: -15.5%.

For `O=C(OC1CN2CCC1CC2)c1ccc([N+](=O)[O-])cc1` (stereo unspecified), the inhibition is inactive: 15.6%.

Consider `O=C(OCCN1CCN(CCOCc2ccccc2)CC1)C(O)(c1ccccc1)c1ccccc1`, for which the inhibition was inactive: -0.251%.

For the compound `CP(=O)(Nc1ccccc1F)Oc1ccccc1` (stereo unspecified), the inhibition was inactive: -4.23%.

As to `CC(C)c1ccc(OP(C)(=O)Nc2ccc(SC(F)(F)F)cc2)cc1` (stereo unspecified), the inhibition is inactive: 17.9%.

Turning to `O=[N+]([O-])c1cc([N+](=O)[O-])c(Nc2ccc(Cl)cc2)c([N+](=O)[O-])c1`, the inhibition is inactive: 22.9%.

Consider `Cc1ccccc1NP(C)(=O)Nc1ccccc1C`, for which the inhibition was inactive: -0.969%.

Consider `O=[N+]([O-])c1cc([N+](=O)[O-])c(C(F)(F)F)c([N+](=O)[O-])c1O`, for which the inhibition was inactive: -8.53%.

In the case of `CCOP(=O)(CC)OCC`, the inhibition was inactive: 20%.

Regarding `CP(=O)(Nc1ccc(SC(F)(F)F)cc1)Oc1ccc(F)cc1` (stereo unspecified), the inhibition is inactive: 2.55%.

Turning to `Cc1c(C(c2ccc3c(c2)OCO3)c2c(C)n(C)n(-c3ccccc3)c2=O)c(=O)n(-c2ccccc2)n1C.O=[N+]([O-])c1cc([N+](=O)[O-])c(O)c([N+](=O)[O-])c1`, the inhibition was inactive: -9.18%.

Regarding `O=[N+]([O-])c1ccc(OP2(=O)COCCO2)cc1` (stereo unspecified), the inhibition was inactive: -0.43%.

As to `O=[N+]([O-])c1cc([N+](=O)[O-])c(NCC2CCS(=O)(=O)C2)c([N+](=O)[O-])c1` (stereo unspecified), the inhibition is inactive: 14.1%.

For the compound `Cc1cc(-c2cccc3ccccc23)c(C)cn1.O=[N+]([O-])c1cc([N+](=O)[O-])c(O)c([N+](=O)[O-])c1`, the inhibition is inactive: -12.9%.

In the case of `COc1ccc(NP(C)(=O)Oc2ccccc2OC)cc1` (stereo unspecified), the inhibition is inactive: -24.5%.

Consider `CCOC(=O)c1ccc(NP(C)(=O)Oc2ccc(Cl)cc2)cc1` (stereo unspecified), for which the inhibition was inactive: -8.15%.

Take `CP(=O)(OC12CC3CC(CC(C3)C1)C2)OC12CC3CC(CC(C3)C1)C2`: the inhibition was inactive: 3.67%.

As to `CN(C)C(=O)c1c([N+](=O)[O-])cc([N+](=O)[O-])cc1[N+](=O)[O-]`, the inhibition was inactive: 24.6%.

For the compound `CC(C)(C)c1ccc(OP(C)(=O)O)cc1`, the inhibition is inactive: -1.15%.

In the case of `COc1ccccc1OP(C)(=O)Nc1ccccc1Br` (stereo unspecified), the inhibition was inactive: 8.36%.

For the compound `O=C(OCCCN1CCCC1)C(O)(c1ccccc1)C1CCCCC1` (stereo unspecified), the inhibition was inactive: -6.42%.

On to `CCc1ccc(OP(C)(=O)Nc2cccnc2)cc1` (stereo unspecified), for which the inhibition was inactive: 15.2%.

Consider `COc1ccc(OP(C)(=O)Nc2ccc(Br)cc2)cc1` (stereo unspecified), for which the inhibition was inactive: 2.95%.

Take `O=[N+]([O-])c1cc([N+](=O)[O-])c(Nc2ccccn2)c([N+](=O)[O-])c1`: the inhibition was inactive: -21.2%.

Regarding `COc1ccc(OP(C)(=O)Nc2ccccn2)cc1` (stereo unspecified), the inhibition is inactive: 2.92%.

`COc1ccccc1OP(C)(=O)Nc1ccc(Br)cc1` (stereo unspecified): the inhibition is inactive: -0.114%.

For `CP(=O)(OCCOc1ccccc1)OCCOc1ccccc1`, the inhibition was inactive: -7.28%.

As to `CCCCCCCCCCCCCCCC1C[N+](C)(C)CCOP(C)(=O)O1` (stereo unspecified), the inhibition was inactive: 14.3%.

For `CP(=O)(Nc1ccc(Cl)cc1Cl)Oc1ccccc1` (stereo unspecified), the inhibition is inactive: -0.705%.

Take `COc1ccc(OP(C)(=O)Nc2ccccc2Br)cc1` (stereo unspecified): the inhibition was inactive: -1.58%.

As to `Cc1cc(C)cc(OP(C)(=O)Nc2cccc(C(F)(F)F)c2)c1` (stereo unspecified), the inhibition is inactive: 7.2%.

On to `O=C1C(O)=C([N+](=O)[O-])C(=O)C(O)=C1[N+](=O)[O-]`, for which the inhibition is inactive: 3.56%.
